Laboratory results published in PubChem BioAssay AID602429 (Sanford-Burnham Center for Chemical Genomics, 2012).
Only a part is listed here, and it is no random draw. Active and inactive are the calls of the source. Cut-off read from the data, not from the text of the source: active = inhibition above about 37%; inactive = the rest.

Protein sequences, listed by entry. Tags and fused reporters are not part of them.
UniProt P63165, whole entry, looked up: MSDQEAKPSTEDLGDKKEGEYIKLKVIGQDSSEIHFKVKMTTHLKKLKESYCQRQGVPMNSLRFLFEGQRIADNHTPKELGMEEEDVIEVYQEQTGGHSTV

Biological target: Small ubiquitin-related modifier 1 (Homo sapiens) (UniProt P63165)
Experiment: modulators of SUMO1 protein-protein interactions, primary screen, biochemical, uHTS (AID 602429)
Conditions: SUMO1 binding to a labelled peptide, TR-FRET, 1 h; at 20 µM; stronger effect = higher value

Structure (SMILES)	inhibition
CCOC(=O)Nc1ccc([As](=O)(O)O)c(O)c1	inactive: -3.74%
CC1CCNP(=O)(N(CCCl)CCCl)O1 (centres undefined)	inactive: -5.65%
COP(=O)(OC)N1CC1c1ccccc1 (centres undefined)	inactive: 1.69%
Cc1cc(SC(NC(=O)c2ccccc2)C(Cl)(Cl)Cl)nc(C(C)C)n1 (centres undefined)	inactive: -2.02%
CCCCOc1ccc(C(=O)NCC2(N3CCCCC3)CCCCC2)cc1OC	inactive: -3.15%
ClCCSc1nnc(-c2cccnc2)o1	inactive: 1.67%
CC(C)c1ccc(OP(=O)(Nc2ccccn2)Oc2ccccc2F)cc1 (centres undefined)	inactive: 0.937%
COC(=O)C1(C)COP(=O)(N2CCCCCC2)OC1 (centres undefined)	inactive: 4.16%
O=[N+]([O-])c1cc([N+](=O)[O-])c(-c2ccn[nH]2)s1	inactive: -4.94%
CCN(CC)C(=S)SC(NC=O)C(Cl)(Cl)Cl (centres undefined)	inactive: -1.9%
O=C(OC1CN2CCC1CC2)c1cccc2[nH]cnc12 (centres undefined)	inactive: 2.43%
CC(C)NC(=O)NP(=O)(Oc1ccccc1)Oc1ccccc1	inactive: -0.723%
COc1cc(C(=O)NCC2(N3CCOCC3)CCCCC2)ccc1OCC(C)C	inactive: -3.91%
O=[N+]([O-])c1ccc(-c2cc([N+](=O)[O-])c(O)c([N+](=O)[O-])c2)cc1	inactive: -16.8%
O=[As](O)(c1ccc(O)cc1)c1ccccc1O	inactive: 7.83%
C[As](=O)(O)c1cccc(C(=O)O)c1	inactive: 2.08%
Cc1ccc(OP(=O)(Nc2ccc([N+](=O)[O-])cn2)Oc2ccc(C)cc2)cc1	inactive: 1.17%
[N-]=[N+]=NC1CCCCC1NC(=O)c1cc([N+](=O)[O-])cc([N+](=O)[O-])c1 (centres undefined)	inactive: -49.2%
Cc1ccc2nc3c(c(C)c2c1)CC(C(Cl)Cl)S3 (centres undefined)	inactive: 2.31%
O=[N+]([O-])c1cc(Oc2ccc([N+](=O)[O-])cc2C(F)(F)F)cc([N+](=O)[O-])c1	inactive: -50.5%
COc1ccc(N/C(=N/P(=O)(N2CCOCC2)N2CCOCC2)N2CCOCC2)cc1	inactive: -1.24%
Cc1c2c(nc3ccccc13)SC(C(Cl)Cl)C2 (centres undefined)	inactive: 0.359%
Cc1cc(=O)[nH]c(N[N+](=O)[O-])n1	inactive: 0.283%

Structure (SMILES)	inhibition
O=C(OC1CN2CCC1CC2)C12CC3CC(CC(C3)C1)C2 (centres undefined)	inactive: 1.41%
O=P1(N(CCCl)CCCl)Nc2ccccc2N1	inactive: -2.24%
O=P1(N(CCCl)CCCl)OCCCN1CCCl (centres undefined)	inactive: 2.92%
COc1cc(I)ccc1[As](=O)(O)O	inactive: 5.94%
COc1ccc2nc(NP(=O)(c3ccccc3)c3ccccc3)sc2c1	inactive: -3.1%
O=C(NC(Sc1ccncn1)C(Cl)(Cl)Cl)c1ccccc1 (centres undefined)	inactive: -1.53%
Oc1ccccc1CNc1ccccn1	inactive: -1.29%
CC(C)CC(=O)NC(Sc1ccc(Cl)cc1)C(Cl)(Cl)Cl (centres undefined)	inactive: 4.79%
Nc1cc(N)c2nonc2c1[N+](=O)[O-]	inactive: -12.3%
O=[N+]([O-])C1C(O)C(O)C([N+](=O)[O-])C(O)C1O (centres undefined)	inactive: 1.84%
Cc1ccc(N/C(=N/P(=O)(N2CCOCC2)N2CCOCC2)N2CCOCC2)cc1	inactive: 26%
CN(C(=O)Cc1ccc(Cl)c(Cl)c1)[C@H]1CCCC[C@H]1N1CCCC1	inactive: 2.82%
NC(=O)c1cc([N+](=O)[O-])cc([N+](=O)[O-])c1N	inactive: -23.3%
Clc1ccc(Cl)c(NC2=NCC(CBr)S2)c1 (centres undefined)	inactive: -4.82%
CN1CCCC(OC(=O)C(c2ccccc2)c2ccccc2)C1 (centres undefined)	inactive: -3.15%
Cc1ccc(OP(=O)(Nc2nccs2)Oc2ccc(C)cc2)cc1	inactive: 2.04%
COc1ccccc1OP(=O)(Nc1ccc(C)cn1)Oc1ccccc1OC	inactive: 7.79%
Nc1cccc2ccc([As](=O)(O)O)cc12	inactive: -6.18%
CCN(N=Nc1nonc1N)c1nonc1N	inactive: -0.955%
CN(C)P(=O)(N(C)C)n1c(Nc2ccccc2)nnc1-c1ccccc1	inactive: -0.236%
O=P(Nc1nc2ccc(Cl)cc2s1)(c1ccccc1)c1ccccc1	inactive: 4.25%
CCCC1OP(N)(=O)OCC1CC (centres undefined)	inactive: -4.06%
O=C(O)c1ccccc1[As](=O)(O)O	inactive: 0.0175%

Structure (SMILES)	inhibition
CC(=O)Nc1ccc([As](=O)(O)O)cc1	inactive: -3.53%
CN(C(=O)Cc1ccc(Cl)c(Cl)c1)[C@H]1CCCC[C@@H]1N1CCCC1	inactive: 1.26%
Cc1ccc(NP(=O)(Oc2ccccc2F)Oc2ccccc2F)nc1	inactive: 0.0733%
CCOP(=O)(Nc1ccccc1)OCC	inactive: 2.54%
Cc1cc(SC(NC(=O)c2ccc(F)cc2)C(Cl)(Cl)Cl)ncn1 (centres undefined)	inactive: -5.54%
O=[N+]([O-])c1ncn(CCn2ncnc2[N+](=O)[O-])n1	inactive: -16.9%
CC(C)(C)C(=O)NC(Sc1ccncn1)C(Cl)(Cl)Cl (centres undefined)	inactive: -6.69%
O=C(O)CNc1ccc([As](=O)(O)O)cc1	inactive: 3.84%
O=[N+]([O-])c1cccc(NC2=NCC(CBr)S2)c1 (centres undefined)	inactive: -21.7%
COC(=O)C1(C)COP(=O)(Nc2ccccc2)OC1 (centres undefined)	inactive: 1.08%
O=P1(N(CCCl)CCCl)OCCCS1 (centres undefined)	inactive: 0.409%
O=C(Nc1cc([As](=O)(O)O)ccc1O)c1ccccc1	inactive: -7.43%
CCN(/C(=N/P(=O)(N1CCOCC1)N1CCOCC1)N1CCOCC1)c1ccc(OC)cc1	inactive: 0.397%
C[N+]1=C2C=CC=CC=C2SC12C([N+](=O)[O-])=CC([N+](=O)[O-])=C[C-]2[N+](=O)[O-] (centres undefined)	inactive: 3.78%
Nc1ccc([As](=O)(O)c2ccc(N)cc2)cc1	inactive: -1.32%
c1cc(-c2nn[nH]n2)ccc1-c1nn[nH]n1	inactive: -0.425%
CC1CCN(C(=O)Oc2c(Cl)cc(Cl)c3cccnc23)CC1	inactive: -7.94%
CN(C)C(=O)OCCc1n(C)cc[n+]1C	inactive: 1.12%
CC(C)=N/N=C(\N)N[N+](=O)[O-]	inactive: 1.11%
CC(C)c1nc(Nc2ccccc2)n(P(=O)(N(C)C)N(C)C)n1	inactive: 0.106%
COc1ccc(C2=NCC(CBr)S2)cc1 (centres undefined)	inactive: 0.862%
O=[N+]([O-])c1cc([N+](=O)[O-])c(CCNc2ccccc2)c([N+](=O)[O-])c1	inactive: -21.1%
CCc1nc2c(n1)c1c(non1O)c1c2no[n+]1[O-]	inactive: -19.6%

Structure (SMILES)	inhibition
Cc1ccc(NP(=O)(Oc2ccccc2)Oc2ccccc2)nc1	inactive: 0.906%
CC(=O)N1C2C3N(C(C)=O)C1C1N(C(C)=O)C(C(N1C(C)=O)N3C(C)=O)N2C(C)=O	inactive: 0.119%
O=[N+]([O-])c1cccc2n[nH]nc12	inactive: -20.1%
O=P(Nc1nccs1)(c1ccccc1)c1ccccc1	inactive: 1.72%
CC(C)C(=O)NC(Sc1ccccc1)C(Cl)(Cl)Cl (centres undefined)	inactive: -0.762%
c1nnnn1CCn1cnnn1	inactive: 0.44%
O=[As](O)(c1ccccc1)c1ccc(O)cc1	inactive: -3.51%
CC(=O)NC(SC(=S)N(C)C)C(Cl)(Cl)Cl (centres undefined)	inactive: -0.13%
O=[N+]([O-])c1ncn(CCn2cnc([N+](=O)[O-])n2)n1	inactive: -26.4%
O=[N+]([O-])c1ccc(O)c(/C=N/Nc2ccc([N+](=O)[O-])cc2[N+](=O)[O-])c1	inactive: -9.48%
O=C(OC1CN2CCC1CC2)c1cccc(Cl)c1 (centres undefined)	inactive: 0.842%
Nc1ccc([As](=O)(O)c2ccc([N+](=O)[O-])cc2)cc1	inactive: -24.3%
C(Cc1nn[nH]n1)Cc1nn[nH]n1	inactive: -2.44%
CN(C)C1(CNC(=O)c2ccc(Cl)c(S(N)(=O)=O)c2)CCCCC1	inactive: 2.13%
O=P(Nc1ccccn1)(c1ccc(Br)cc1)c1ccc(Br)cc1	inactive: -4.12%
Nc1ccc(CCCCOc2ccccc2)cc1	inactive: -12.5%
COc1ccc(N)c([N+](=O)[O-])c1[N+](=O)[O-]	inactive: -38.2%
C[C@H]1OP(=O)(Oc2ccccc2)[C@H](O)[C@H](O)[C@H]1N=[N+]=[N-] (some centres undefined)	inactive: 4.93%
O=P(Nc1nc2ccccc2s1)(c1ccccc1)c1ccccc1	inactive: -0.0735%
CCC(=O)N1C2C3N(C(=O)CC)C1C1N(C(=O)CC)C(C(N1C(=O)CC)N3C(=O)CC)N2C(=O)CC	inactive: 1.54%
O=C(OC1CN2CCC1CC2)c1ccccc1 (centres undefined)	inactive: 2.63%
CC(=O)NC(SC(=S)N(CC(C)C)CC(C)C)C(Cl)(Cl)Cl (centres undefined)	inactive: 1.38%
Cc1ccc(OP(=O)(Nc2ccccn2)Oc2ccc(C)cc2)cc1	inactive: -0.081%

Structure (SMILES)	inhibition
COC(=O)c1cc2c(s1)N=C(c1ccccc1)N(C)P2(=O)N1CCOCC1 (centres undefined)	inactive: 0.314%
CN(C)C(=O)Oc1noc2ccccc12	inactive: 1.51%
O=c1c2cc([N+](=O)[O-])ccc2[nH]c2c([N+](=O)[O-])cc([N+](=O)[O-])cc12	inactive: 21%
Cc1ccccc1OP(=O)(Nc1ccccn1)Oc1ccccc1C	inactive: 7.34%
CC(NC(=O)COC(=O)C(O)(c1ccccc1)c1ccccc1)c1ccccc1 (centres undefined)	inactive: 3.95%
Cc1ccc(NP(=O)(Oc2cccc(C)c2)Oc2cccc(C)c2)nc1	inactive: -4.45%
c1ccc(-c2nn[nH]n2)c(-c2nn[nH]n2)c1	inactive: -1.97%
O=C(NC1CCS(=O)(=O)C1)NP(=S)(Oc1ccccc1)Oc1ccccc1 (centres undefined)	inactive: -3.86%
CCNC(=S)/N=C(\N)N[N+](=O)[O-]	inactive: 12%
O=P1(N(CCCl)CCCl)OCCC2CCCCN21 (centres undefined)	inactive: -19.2%
C[C@@H]1C=CCP(=O)(Oc2ccccc2)O1 (some centres undefined)	inactive: -1.28%
C[C@H]1OP(=O)(Oc2ccccc2)C[C@@H]2O[C@@H]21 (some centres undefined)	inactive: -10.8%
Cc1ccccc1CN(C)C(=O)COC(=O)C(O)(c1ccccc1)c1ccccc1	inactive: 4.63%
COC(=O)C1(C)COP(=O)(NCc2ccccc2)OC1 (centres undefined)	inactive: 1.51%
N#C/C(=C\c1ccc(N(CCBr)CCBr)cc1)C(N)=O	inactive: -20.7%
CC(=O)c1ccc(N2CC2c2ccncc2)cc1 (centres undefined)	inactive: -1.19%
CC(=O)Nc1ccc(Oc2c([N+](=O)[O-])cc([N+](=O)[O-])cc2[N+](=O)[O-])cc1	inactive: -17.6%
CC(=O)Nc1ccc([As](=O)(O)O)c(O)c1	inactive: 0.909%
CCOc1ccc(C2=NCC(CBr)S2)cc1 (centres undefined)	inactive: -0.108%
O=P1(Nc2nc3ccc(Cl)cc3s2)COc2ccccc2O1 (centres undefined)	inactive: 1.83%
CC(C)(C)C(=O)NC(Sc1ccccc1)C(Cl)(Cl)Cl (centres undefined)	inactive: 2.53%
CCc1cc(O)c([N+](=O)[O-])c(C)c1[N+](=O)[O-]	inactive: -0.201%
